The text below walks through data of ChEMBL document CHEMBL1138481, “Compounds binding to the S2-S3 pockets of thrombin” (J Med Chem, 2009).

SMILES strings stand for the structures.

The test can be described thus: Inhibition of human alpha thrombin by chromogenic substrate enzyme assay.

Consider `N=C(N)c1ccc(CNC(=O)[C@@H]2CCN2C(=O)[C@H](NCC(=O)O)C2CCCCC2)cc1` [MELAGATRAN], for which the IC50 was 8 nM.
